According to PMC3226828 (Journal of medicinal chemistry, 2011):
Like-named read-outs stand apart in the source and are kept apart here.

Assays:
[1] = tested on: mGlu1–3,5,6–8; settings: against other mGlu subtypes (mGlu1–3,5,6–8)
[2] = tested on: mGlu1,2,3; settings: 10 µM compound with full glutamate CRC; Inactive = no left-shift

Row | Compound | mGlu selectivity [1] | mGlu selectivity ([1]; listed as C00004) | mGlu Selectivity mGlu1,2,3 [2]
1 | O=C(Nc1ccc(N2S(=O)(=O)c3ccccc3S2(=O)=O)cc1)c1ccccn1 [8d, N-(4-(1,1,3,3-Tetraoxidobenzo[d][1,3,2]dithiazol-2-yl)phenyl)picolinamide] | displayed selectivity | selective | 
2 | O=C(Nc1ccc(N2C(=O)CC(c3ccccc3)C2=O)c(Cl)c1)c1ccccn1 (stereo not drawn) [15k, N-(3-Chloro-4-(2,5-dioxo-3-phenylpyrrolidin-1-yl)phenyl)picolinamide] |  |  | Inactive ^b
